Assay results: PubChem BioAssay AID504884 (Broad Institute, 2011)
The list shows a part of the results, in another mix than the full data. Activity calls are given as the source filed them. Rule as the data show it: active = activity above about 50% (passing the limit was not always enough); inconclusive = no clear call, values can overlap the other calls.

test system: DNA topoisomerase I (Yersinia pestis CO92); assay: Yersinia pestis topoisomerase I inhibitors, primary screen, biochemical, cleavage product accumulation, plate reader, single point (AID 504884); details: Y. pestis Topo-I cleavage product accumulation, at 10 µM, stronger effect = higher value

Row | SMILES | activity
1 | CCC(=O)N(c1ccccc1)C1(COC)CCN(CCc2cccs2)CC1 | inactive: 23.9%
2 | CCC(=O)N(c1ccccc1)C1(COC)CCN(CCn2nnn(CC)c2=O)CC1 | inactive: 3.79%
